The record followed here is patent US20170304460A1, “METHOD OF CONJUGATING A POLYPEPTIDE” (MedImmune, LLC, priority 2014, published 2017).

Assay type in all cases: physicochemical
Data set [1] can be described thus: Stability of mAb-biotin conjugates in the presence of free thiol (BME) after mild hydrolysis. Conditions: PEG-biotin T289C mAb conjugates after mild hydrolysis (pH 8.6, 37° C., 1 hr). As to the method:
Biotin-mAb conjugates were incubated in aqueous buffer containing β-mercaptoethanol (BME) to challenge the thiosuccinimide linkage against deconjugation. In this experiment, thiosuccinimide conjugates were subjected to a brief incubation at mildly basic conditions to facilitate thiosuccinimide hydrolysis before the stability challenge. x-Maleimide-PEG-biotins were conjugated to mAb containing the T289C mutation as described above with minor modification. Conjugation reactions were performed at 1 equivalent x-PEG-maleimide:thiol for 15 min at 22° C. followed quenching with N-acetyl cysteine (100 eq rel. to mAb) and further reaction for 5 minutes. Reaction mixtures were adjusted to pH 8.6 by addition of 10% v/v sodium phosphate (1M, dibasic) and then incubated at 37° C. for 1 hr. Reactions were then dialyzed against PBS (pH 7.2) containing 0.5 mM EDTA for 24 hr at 4° C. After dialysis, mAb concentrations were confirmed by A280 measurement (NanoDrop) and samples were diluted to 0.2 mg/mL (1.33 μM mAb) with 1×PBS pH 7.2 containing 0.5 mM EDTA. For BME-containing samples, BME was added to a final concentration of 1% v/v (143 mM). […] Aliquots were removed at various time points, sterile filtered, reduced with DTT and then analyzed by LC/MS. Percent conjugated mAb and thiosuccinimide hydrolysis was determined from peak heights of mass spectra using Equation 1 and Equation 2, respectively. […]

Data set [2] can be described thus: x-Thiosuccinimide hydrolysis for PEG-biotin T289C mAb conjugates in the presence of sodium molybdate. Conditions: 1 hr, 100 mM molybdate.
Data set [3] is described as follows: Thiosuccinimide hydrolysis kinetics for x-maleimide-PEG-biotin T289C mAb conjugates. To be noted: PEG-biotin conjugates at mAb position T289C. As to the method: x-Maleimide-PEG-biotin mAb conjugates were incubated in buffer solutions and monitored by LC/MS over time to observe thiosuccinimide hydrolysis. First, mAb containing the T289C Fc mutation (0.75 mg, 5 nmol, 1 eq) was reacted with x-maleimide-PEG-biotin (50 nmol, 5 mL of a 10 mM stock in DMAC, 10 eq) in 577 mL PBS, pH 7.2. The conjugation reaction was allowed to proceed for 5 minutes and then quenched with N-acetyl cysteine (500 nmol, 4 mL of 100 mM stock in water, 100 eq) and further incubated for 5 minutes. The reaction mixture was then combined with PBS containing 0.5 mM EDTA and 1M sodium phosphate at the desired pH to achieve final concentrations of 0.65 mg/mL mAb, 100 mM phosphate, 0.5 M EDTA and 150 mM NaCl. After sample preparation, an aliquot was removed and diluted 1:3 with 75 mM phosphate buffer pH 5.5 to obtain an initial time point sample. Samples were then further incubated at the desired conditions with aliquots removed at determined time points. All samples were immediately diluted 1:3 with 75 mM phosphate buffer pH 5.5 to stop the hydrolysis reaction. Samples were then sterile filtered, reduced with TCEP, and analyzed by LC/MS. Thiosuccinimide hydrolysis was confirmed by addition of 18 amu to the mAb conjugate peak in the mass spectrum. Semi-quantitative analysis of hydrolysis was performed using peak intensities in deconvoluted mass spectra and equation 3, which includes background subtraction using the T=0 measurement. […]
(§1) Thiosuccinimide hydrolysis data were also analyzed in units of molar concentration to determine kinetic constants. Pseudo 1st order rate constants were determined from the slopes of curves generated from plotting ln [maleimide] versus time and linear regression analysis.
as §1

Data set [4] in a line: BME challenge assay: sensitivity of PEG-biotin T289C mAb conjugates to thiol exchange in buffer containing thiols. To be noted: for Psuedo first order rate constant (kobs), thiosuccinimide hydrolysis: pH 7.2, 37° C. As to the method:
Biotin-mAb conjugates were incubated in aqueous buffer containing β-mercaptoethanol (BME) to challenge the thiosuccinimide linkage against deconjugation. x-Maleimide-PEG-biotins were conjugated to mAb containing the T289C mutation as described above with minor modification. Conjugation reactions were performed at 1 equivalent x-PEG-maleimide:thiol for 15 min at 22° C. followed immediately by dilution to 0.2 mg/mL (1.33 μM mAb) with 1×PBS pH 7.2 containing 0.5 mM EDTA. The N-acetyl cysteine quenching step was omitted. For BME-containing samples, BME was added to a final concentration of 1% v/v (143 mM). Samples were further incubated at 37° C. under ambient atmosphere without stirring. Aliquots were removed at various time points, sterile filtered, reduced with DTT and then analyzed by LC/MS. Percent conjugated mAb and thiosuccinimide hydrolysis were determined from peak heights of mass spectra using Equation 1 and Equation 2, respectively. Deconjugated mAb and thiosuccinimide hydrolysis data were plotted as ln [concentration] vs. time (s) to obtain the pseudo-first order rate constants from the slope of the bestfit line.

In the case of N-fluorophenyl thiosuccinimide, the figures for the Initial hydrolysis in data set [1] and in data set [4] (no pre-hydrolysis) were 96% and below 1%, respectively. Besides, the “Relative Hydrolysis (+sodium molybdate/−sodium molybdate)” value in data set [2] (pH 5.5, 22° C.) is 52; in data set [2] (pH 7.4, 22° C.), 2.2; in data set [2] (pH 8.6, 22° C.), 1. For the same substance, the “Psuedo first order rate constant (kobs), thiosuccinimide hydrolysis” value in data set [3] (pH 7.4, 22° C.) is 4.6e-05 s⁻¹; in data set [3] (pH 7.4, 37° C.), 0.00028 s⁻¹; in data set [3] (pH 8.6, 22° C.), 0.00049 s⁻¹; in data set [4] (+BME), above 3.3e-05 s⁻¹; in data set [4] (no BME), above 3.1e-05 s⁻¹.
